The text below walks through data of ChEMBL document CHEMBL1201862, “PubChem BioAssay data set” (2004).

The target of one experiment is T1, Leucine aminopeptidase (Plasmodium falciparum 3D7, UniProt Q8IL11).
T1 sequence (Q8IL11 whole entry): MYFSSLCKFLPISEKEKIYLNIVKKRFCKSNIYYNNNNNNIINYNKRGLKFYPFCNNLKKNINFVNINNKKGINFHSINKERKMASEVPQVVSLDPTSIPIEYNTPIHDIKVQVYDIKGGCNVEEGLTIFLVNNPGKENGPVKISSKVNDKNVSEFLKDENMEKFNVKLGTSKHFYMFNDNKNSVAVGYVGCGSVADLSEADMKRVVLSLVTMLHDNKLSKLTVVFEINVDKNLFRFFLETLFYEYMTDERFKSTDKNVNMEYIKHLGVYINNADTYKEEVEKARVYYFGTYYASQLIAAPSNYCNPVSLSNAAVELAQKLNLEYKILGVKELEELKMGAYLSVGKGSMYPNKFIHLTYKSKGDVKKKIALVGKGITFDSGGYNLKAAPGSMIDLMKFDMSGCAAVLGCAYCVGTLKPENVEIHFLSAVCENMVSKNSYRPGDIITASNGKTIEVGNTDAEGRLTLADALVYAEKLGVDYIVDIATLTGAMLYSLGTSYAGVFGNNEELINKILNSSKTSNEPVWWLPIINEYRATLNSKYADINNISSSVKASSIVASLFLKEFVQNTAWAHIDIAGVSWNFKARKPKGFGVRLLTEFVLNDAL
Briefly: P. falciparum M17LAP inhibitors, primary screen, biochemical, fluorogenic H-Leu-NHMec substrate, 1536-well (AID 1619). It counts as functional.

The next experiment has as its target T2, Interleukin-8 (Homo sapiens, UniProt P10145).
T2 sequence (P10145 whole entry): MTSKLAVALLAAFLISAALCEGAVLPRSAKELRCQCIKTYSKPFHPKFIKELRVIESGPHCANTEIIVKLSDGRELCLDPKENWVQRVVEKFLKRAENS
Briefly: SAR analysis of GM-Tri-DAP induced IL-8 secretion in MCF-7/NOD1 cells - Set 2. [Related pubchem assays (depositor defined):AID1575, AID1578, AID2333]. In kind it is functional, cell-based.

For experiment [1], the target named is T3, Nucleotide-binding oligomerization domain-containing protein 1 (Homo sapiens, UniProt Q9Y239).
T3 sequence (Q9Y239 whole entry): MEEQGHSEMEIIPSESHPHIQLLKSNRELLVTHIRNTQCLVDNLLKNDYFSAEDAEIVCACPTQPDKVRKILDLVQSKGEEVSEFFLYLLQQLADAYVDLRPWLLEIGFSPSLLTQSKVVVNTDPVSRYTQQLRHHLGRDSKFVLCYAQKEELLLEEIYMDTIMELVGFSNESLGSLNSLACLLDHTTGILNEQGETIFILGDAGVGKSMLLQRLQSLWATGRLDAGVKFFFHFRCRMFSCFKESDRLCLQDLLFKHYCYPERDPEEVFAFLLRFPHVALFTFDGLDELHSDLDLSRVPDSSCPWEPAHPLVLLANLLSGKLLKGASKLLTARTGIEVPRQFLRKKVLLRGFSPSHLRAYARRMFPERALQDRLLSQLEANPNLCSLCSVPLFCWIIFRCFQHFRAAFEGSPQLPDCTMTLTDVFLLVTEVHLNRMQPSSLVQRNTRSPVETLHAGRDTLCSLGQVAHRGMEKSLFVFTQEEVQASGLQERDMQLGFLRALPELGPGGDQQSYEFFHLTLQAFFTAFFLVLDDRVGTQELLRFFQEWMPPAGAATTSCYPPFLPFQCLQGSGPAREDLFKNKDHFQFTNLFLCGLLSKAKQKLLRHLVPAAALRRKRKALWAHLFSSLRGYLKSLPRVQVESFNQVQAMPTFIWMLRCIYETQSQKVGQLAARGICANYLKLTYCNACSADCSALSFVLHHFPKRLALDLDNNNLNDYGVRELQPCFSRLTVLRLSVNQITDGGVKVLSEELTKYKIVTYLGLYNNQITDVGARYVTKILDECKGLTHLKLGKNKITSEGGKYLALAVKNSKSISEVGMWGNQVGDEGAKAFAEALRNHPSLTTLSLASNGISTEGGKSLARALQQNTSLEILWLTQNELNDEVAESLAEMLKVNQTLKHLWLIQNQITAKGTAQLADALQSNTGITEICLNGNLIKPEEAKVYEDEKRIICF
Briefly: SAR analysis of NF-kB dependent luciferase using DAP as an inducer. [Related pubchem assays (depositor defined):AID1566, AID1575, AID1578, AID1579, AID1849, AID1852, AID2793]. It counts as functional.

Experiment [2] has as its target T3, Nucleotide-binding oligomerization domain-containing protein 1. Briefly: SAR analysis of compounds that inhibit NOD1 - Set 3. [Related pubchem assays (depositor defined):AID1566, AID1575, AID1578, AID1849, AID1852, AID2333, AID2335, AID2466]. It counts as functional.
The next experiment concerns INS1. Briefly: INS-1E survival protection against cytokine death – cell-based, luminescence, retest, dose response (AID 449756).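 Further: cell death triggered by IL-1 beta plus TNF-alpha plus IFN-gamma mixture; protective hits raise ATP signal compared with cytokine alone wells.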 As to conditions: Rattus norvegicus. In kind it is functional.
Experiment [3] is described as follows: HEK-293T viability loss after treatment – luminescence, T-cell screen hits, cytotoxicity control for TCR NF-kB inhibitor project, dose response (AID 489026).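 Further: cells exposed to compound about 14 hours before the viability readout.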 It counts as functional, cell-based.
The target in experiment [4] is T4, Apoptotic protease-activating factor 1 (Homo sapiens, UniProt O14727).
T4 sequence (O14727 whole entry): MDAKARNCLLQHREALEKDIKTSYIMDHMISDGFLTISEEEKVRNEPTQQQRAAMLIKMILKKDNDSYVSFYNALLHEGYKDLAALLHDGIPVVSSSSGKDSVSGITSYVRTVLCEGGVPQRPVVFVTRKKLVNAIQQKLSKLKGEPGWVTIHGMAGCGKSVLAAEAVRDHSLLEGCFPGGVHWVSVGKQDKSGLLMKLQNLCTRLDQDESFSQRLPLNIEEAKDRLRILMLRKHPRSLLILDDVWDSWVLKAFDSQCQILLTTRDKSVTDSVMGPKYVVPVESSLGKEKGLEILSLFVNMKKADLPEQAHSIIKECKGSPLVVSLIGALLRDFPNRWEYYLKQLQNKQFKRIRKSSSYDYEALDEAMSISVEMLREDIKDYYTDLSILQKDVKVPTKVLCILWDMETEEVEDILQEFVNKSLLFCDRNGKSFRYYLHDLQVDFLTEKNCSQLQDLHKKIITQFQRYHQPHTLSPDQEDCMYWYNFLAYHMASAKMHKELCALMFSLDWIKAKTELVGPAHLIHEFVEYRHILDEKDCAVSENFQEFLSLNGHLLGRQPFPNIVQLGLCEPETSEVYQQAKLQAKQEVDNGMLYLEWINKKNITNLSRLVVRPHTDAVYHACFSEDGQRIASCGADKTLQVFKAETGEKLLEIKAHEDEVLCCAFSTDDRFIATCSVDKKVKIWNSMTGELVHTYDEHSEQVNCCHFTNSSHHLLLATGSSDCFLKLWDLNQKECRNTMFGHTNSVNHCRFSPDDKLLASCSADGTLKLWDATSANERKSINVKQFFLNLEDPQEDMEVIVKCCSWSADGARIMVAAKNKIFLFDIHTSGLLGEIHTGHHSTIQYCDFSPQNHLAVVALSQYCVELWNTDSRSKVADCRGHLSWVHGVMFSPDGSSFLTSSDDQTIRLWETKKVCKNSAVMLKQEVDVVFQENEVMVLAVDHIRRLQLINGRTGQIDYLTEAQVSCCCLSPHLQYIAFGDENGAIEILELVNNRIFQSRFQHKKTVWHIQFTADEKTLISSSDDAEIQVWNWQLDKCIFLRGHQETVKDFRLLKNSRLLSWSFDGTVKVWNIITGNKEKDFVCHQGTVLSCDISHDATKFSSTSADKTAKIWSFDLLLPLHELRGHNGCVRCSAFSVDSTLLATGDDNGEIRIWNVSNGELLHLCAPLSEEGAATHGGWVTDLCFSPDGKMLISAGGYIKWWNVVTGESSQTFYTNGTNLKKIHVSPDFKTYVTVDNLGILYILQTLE
In kind it is functional.

Where “and” joins values, the source holds several entries; their conditions need not be identical. Identical values can stand only once. Counter-ions that a name gives are not always drawn. Calls of active or inactive are those of the source. Some results are limits rather than exact numbers.

As for `O=C(CSc1n[nH]c(-c2ccccc2)n1)c1ccccc1`, the IC50 (in general, the midpoint of a concentration-inhibition curve) on Leucine aminopeptidase was active: 47.5 µM.

Turning to `Cc1ccc(S(=O)(=O)n2c(N)nc3ccccc32)cc1`, the IC50 is active: 596 nM and active: 551 nM on Interleukin-8; active: 0.972 µM in experiment [1]; active: 0.257 µM in experiment [2]. As for `CC[n+]1c(/C=C/N(C)c2ccccc2)oc2ccccc21`, in the experiment with INS1, the AC50 – broadly, the concentration giving half of the maximal activity seen – was active: 0.829 µM. For the same molecule, in experiment [3], the IC50 was inactive: > 80 µM. Turning to `CCCCC(CC)CNC(=N)NC(=N)NCCCCCCNC(=N)NC(=N)NCC(CC)CCCC` (configuration not stated) [ALEXIDINE HYDROCHLORIDE], the IC50 in experiment [4] is active: 6.41 µM.
